Our source for the percent of parent and response values is publication PMC5360572 (2017).

B1: human PD-L2 Ig fusion protein [human] / full-length human PD-1, wild type, on HEK293 cells [human] (parent complex)
chain 1: LFTVTVPKELYIIEHGSNVTLECNFDTGSHVNLGAITASLQKVENDTSPHRERATLLEEQLPLGKASFHIPQVQVRDEGQYQCIIIYGVAWDYKYLTLKVKASYRKINTHILKVPETDEVELTCQATGYPLAEVSWPNVSVPANTSHSRTPEGLYQVTSVLRLKPPPGRNFSCVFWNTHVRELTLASIDLQSQMEPRTHPT
chain 2: LDSPDRPWNPPTFSPALLVVTEGDNATFTCSFSNTSESFVLNWYRMSPSNQTDKLAAFPEDRSQPGQDCRFRVTQLPNGRDFHMSVVRARRNDSGTYLCGAISLAPKAQIKESLRAELRVTERRAEVPTAHPSPSPRPAGQFQTLVVGVVGGLLGSLVLLVWVLAVICSRAARGTIGARRTGQPLKEDPSAVPVFSVDYGELDFQWREKTPEPPVPCVPEQTEYATIVFPSGMGTSSPARRGSADGPRSAQPLRPEDGHCSWPL

In one test the parent is B1. The test can be described thus: flow cytometry on cells; 0.5 μg/ml ligand concentration; read off a plot.
With chain 2 LDSPDRPWNPPTFSPALLVVTEGDNATFTCSFSNTSESFVLNWYRMSPSNQTDKLAAFPEDRSQPGQDCRFRVTQLPNGRDFHMSVVRARRNDSGTYLCGAISLAPKAQIKASLRAELRVTERRAEVPTAHPSPSPRPAGQFQTLVVGVVGGLLGSLVLLVWVLAVICSRAARGTIGARRTGQPLKEDPSAVPVFSVDYGELDFQWREKTPEPPVPCVPEQTEYATIVFPSGMGTSSPARRGSADGPRSAQPLRPEDGHCSWPL [chain 2 E112A], the percent of parent is about 140 % WT.

With chain 2 LDSPDRPWNPPTFSPALLVVTEGDNATFTCSFSNTSESFVLNWYRMSPSNQTDKLAAFPEDRSQPGQDCRFRVTQLPNGRDFHMSVVRARRNDSGTYLCGAISRAPKAQIKESLRAELRVTERRAEVPTAHPSPSPRPAGQFQTLVVGVVGGLLGSLVLLVWVLAVICSRAARGTIGARRTGQPLKEDPSAVPVFSVDYGELDFQWREKTPEPPVPCVPEQTEYATIVFPSGMGTSSPARRGSADGPRSAQPLRPEDGHCSWPL [chain 2 L104R], the percent of parent was about 160 % WT.

For chain 2 LDSPDRPWNPPTFSPALLVVTEGDNATFTCSFSNTSESFVLNWYRMSPSNQTDKLAAFPEDRSQPGQDCRFRVTQLPNGRDFHMSVVRARRNDSGTYLCGAISAAPKAQIKESLRAELRVTERRAEVPTAHPSPSPRPAGQFQTLVVGVVGGLLGSLVLLVWVLAVICSRAARGTIGARRTGQPLKEDPSAVPVFSVDYGELDFQWREKTPEPPVPCVPEQTEYATIVFPSGMGTSSPARRGSADGPRSAQPLRPEDGHCSWPL [chain 2 L104A], the percent of parent was about 190 % WT.

With chain 2 LDSPDRPWNPPTFSPALLVVTEGDNATFTCSFSNTSESFVLNWYRMSPSNQTDKLAAFPEDRSQPGQDCRFRVTQLPNGRDFHMSVVRARRNDSGTYLCGAISLAPKAQAKESLRAELRVTERRAEVPTAHPSPSPRPAGQFQTLVVGVVGGLLGSLVLLVWVLAVICSRAARGTIGARRTGQPLKEDPSAVPVFSVDYGELDFQWREKTPEPPVPCVPEQTEYATIVFPSGMGTSSPARRGSADGPRSAQPLRPEDGHCSWPL [chain 2 I110A], the percent of parent was about 70 % WT.

Take chain 2 LDSPDRPWNPPTFSPALLVVTEGDNATFTCSFSNTSESFVLNWYRMSPSNQTDALAAFPEDRSQPGQDCRFRVTQLPNGRDFHMSVVRARRNDSGTYLCGAISLAPKAQIKESLRAELRVTERRAEVPTAHPSPSPRPAGQFQTLVVGVVGGLLGSLVLLVWVLAVICSRAARGTIGARRTGQPLKEDPSAVPVFSVDYGELDFQWREKTPEPPVPCVPEQTEYATIVFPSGMGTSSPARRGSADGPRSAQPLRPEDGHCSWPL [chain 2 K54A]: the percent of parent was about 1 % WT.

In a further test the parent is B1. As to the kind of experiment: flow cytometry on cells; PD-L2 Ig about 330 nM (x position estimated); read off a plot.
On to chain 2 LDSPDRPWNPPTFSPALLVVTEGDNATFTCSFSNTSESFVLNWYRMSPSNQTDALAAFPEDRSQPGQDCRFRVTQLPNGRDFHMSVVRARRNDSGTYLCGAISLAPKAQIKESLRAELRVTERRAEVPTAHPSPSPRPAGQFQTLVVGVVGGLLGSLVLLVWVLAVICSRAARGTIGARRTGQPLKEDPSAVPVFSVDYGELDFQWREKTPEPPVPCVPEQTEYATIVFPSGMGTSSPARRGSADGPRSAQPLRPEDGHCSWPL [chain 2 K54A], for which the response is about 3 MFI.
